Consider five compounds from patent publication US11236047B2 (ASTEX THERAPEUTICS LIMITED, priority 2017, dated 2022).

Test [1] relates to SJSA-1 cells (p53 wild-type, MDM2 amplified osteosarcoma). Nature of the test: Protocol A: SJSA-1 growth inhibition (sulphorhodamine B). Particulars: Homo sapiens.
The next test relates to SJSA-1 cells. Nature of the test: Protocol B: SJSA-1 CellTiter-Glo luminescent cell viability assay. Particulars: for pIC50: read-out: SJSA1 IC50, Protocol B, SJSA-1; for IC50: Homo sapiens.

SMILES strings stand for the structures. pIC50: −log10 of the molar value. Where two headings read alike, the source gives them in different places.

The term IC50 denotes the concentration at which inhibition is half-maximal. Take `CCC(O)(c1cc(F)c2c(c1)C(=O)N(Cc1ccc(C#N)cn1)[C@@]2(O[C@H]1CCOC1)c1ccc(Cl)cc1)C1(F)CCOCC1` (stereo partly drawn): in test [1] (SJSA-1, read-out: SJSA-1 IC50 (μM)), the IC50 came to 0.018 µM. A word on the pIC50: it is the negative decadic logarithm of the IC50, by convention in mol/L. For the compound `CCC(O)(CN1CCN(C)CC1)c1cc(F)c2c(c1)C(=O)N(Cc1ncc(Cl)cn1)[C@@]2(O[C@H]1CCOC1)c1ccc(Cl)cc1` (single isomer, unassigned) [Example 523], the pIC50 in the test with SJSA-1 cells was 5.82.

Regarding `CCC(O)(c1cc(F)c2c(c1)C(=O)N(Cc1ccc(C#N)cn1)[C@@]2(O[C@H]1CCOC1)c1ccc(Cl)cc1)C1(F)CCOCC1` (stereo partly drawn) [445], the pIC50 in the test on SJSA-1 cells is 5.48. Regarding `CC(C)(O)c1cc(F)c2c(c1)C(=O)N(Cc1ccc(Cl)cc1)[C@@]2(OCC1(CO)CC1)c1ccc(Cl)cc1` [Example 2], the 50% inhibitory concentration (IC50) came out at 0.33 µM in test [1] (SJSA-1, 72 h, read-out: SJSA-1 IC50 (μM) (Protocol A), Protocol A, SRB, 72 hrs) and 0.46 µM in the test with SJSA-1 cells (SJSA-1, 72 h, read-out: SJSA1 IC50 (μM) (Protocol B), Protocol B, CellTiter-Glo, 72 hrs).

For the compound `[2H]C([2H])(O)C1(C([2H])([2H])O[C@]2(c3ccc(C#N)cc3)c3ccc(C(C)(C)O)cc3C(=O)N2Cc2ccc(Cl)cn2)CC1` [Example 48], in the test with SJSA-1 cells (SJSA-1, read-out: SJSA1 IC50 (μM) (Protocol B), SJSA-1, Protocol B), the concentration for half-maximal inhibition (IC50) is 0.56 µM.
